Test results reported in US8791116B2, “Myosin light chain kinase inhibitor compounds, compositions and related methods of use” (Northwestern University, priority 2006, dated 2014).
Like-named read-outs stand apart in the source and are kept apart here.

Protein sequences, listed by entry. Tags and fused reporters are not part of them. Residues count along the entry.
UniProt Q15746, whole entry: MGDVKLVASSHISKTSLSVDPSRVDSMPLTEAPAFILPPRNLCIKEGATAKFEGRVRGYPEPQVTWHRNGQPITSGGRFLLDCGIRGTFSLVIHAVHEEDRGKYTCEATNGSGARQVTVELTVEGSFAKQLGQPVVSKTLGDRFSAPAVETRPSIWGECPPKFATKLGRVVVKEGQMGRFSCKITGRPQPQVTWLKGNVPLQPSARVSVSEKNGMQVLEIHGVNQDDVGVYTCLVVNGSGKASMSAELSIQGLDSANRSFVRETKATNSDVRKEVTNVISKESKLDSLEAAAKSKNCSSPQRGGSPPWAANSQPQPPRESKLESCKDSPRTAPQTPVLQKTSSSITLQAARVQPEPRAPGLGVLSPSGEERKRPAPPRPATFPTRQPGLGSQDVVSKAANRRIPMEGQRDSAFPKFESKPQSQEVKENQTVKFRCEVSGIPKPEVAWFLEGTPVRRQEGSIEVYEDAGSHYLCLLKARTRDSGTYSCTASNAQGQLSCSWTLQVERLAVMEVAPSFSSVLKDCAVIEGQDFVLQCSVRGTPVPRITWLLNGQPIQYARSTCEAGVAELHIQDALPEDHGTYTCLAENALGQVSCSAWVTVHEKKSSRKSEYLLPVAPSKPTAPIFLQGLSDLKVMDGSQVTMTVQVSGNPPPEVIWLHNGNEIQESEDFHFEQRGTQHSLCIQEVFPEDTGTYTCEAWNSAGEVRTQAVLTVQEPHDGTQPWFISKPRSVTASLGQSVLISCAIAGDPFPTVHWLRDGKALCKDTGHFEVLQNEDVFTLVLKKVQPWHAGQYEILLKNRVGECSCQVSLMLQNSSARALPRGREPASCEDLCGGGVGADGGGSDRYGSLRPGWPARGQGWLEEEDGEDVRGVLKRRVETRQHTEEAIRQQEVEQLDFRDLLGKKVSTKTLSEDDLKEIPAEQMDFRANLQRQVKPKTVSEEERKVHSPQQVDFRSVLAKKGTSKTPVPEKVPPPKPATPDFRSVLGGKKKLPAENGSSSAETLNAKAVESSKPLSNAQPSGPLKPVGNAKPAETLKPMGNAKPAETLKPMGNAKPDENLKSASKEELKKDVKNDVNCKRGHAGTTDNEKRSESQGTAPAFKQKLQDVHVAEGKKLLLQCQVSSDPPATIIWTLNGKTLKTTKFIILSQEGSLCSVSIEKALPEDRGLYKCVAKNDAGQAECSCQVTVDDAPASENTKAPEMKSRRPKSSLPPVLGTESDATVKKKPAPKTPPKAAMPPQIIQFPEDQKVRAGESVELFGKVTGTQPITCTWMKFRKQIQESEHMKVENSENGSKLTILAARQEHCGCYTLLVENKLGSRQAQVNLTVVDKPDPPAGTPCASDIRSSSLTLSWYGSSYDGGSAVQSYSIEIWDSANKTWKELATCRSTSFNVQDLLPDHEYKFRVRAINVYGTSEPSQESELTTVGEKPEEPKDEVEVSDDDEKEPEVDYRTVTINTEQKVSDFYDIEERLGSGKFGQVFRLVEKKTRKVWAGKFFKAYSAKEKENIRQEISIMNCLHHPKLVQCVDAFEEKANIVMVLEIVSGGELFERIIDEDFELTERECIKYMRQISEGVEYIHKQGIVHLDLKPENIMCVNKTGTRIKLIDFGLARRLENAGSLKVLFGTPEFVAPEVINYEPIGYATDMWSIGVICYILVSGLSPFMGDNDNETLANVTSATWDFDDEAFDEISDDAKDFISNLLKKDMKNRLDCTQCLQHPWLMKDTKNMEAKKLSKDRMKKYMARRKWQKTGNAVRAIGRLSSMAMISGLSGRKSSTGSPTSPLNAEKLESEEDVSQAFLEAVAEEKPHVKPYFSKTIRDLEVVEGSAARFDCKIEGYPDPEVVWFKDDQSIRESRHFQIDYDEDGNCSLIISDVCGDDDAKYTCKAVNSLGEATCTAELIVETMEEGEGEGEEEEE
UniProt P53355, 1-285 limits assumed: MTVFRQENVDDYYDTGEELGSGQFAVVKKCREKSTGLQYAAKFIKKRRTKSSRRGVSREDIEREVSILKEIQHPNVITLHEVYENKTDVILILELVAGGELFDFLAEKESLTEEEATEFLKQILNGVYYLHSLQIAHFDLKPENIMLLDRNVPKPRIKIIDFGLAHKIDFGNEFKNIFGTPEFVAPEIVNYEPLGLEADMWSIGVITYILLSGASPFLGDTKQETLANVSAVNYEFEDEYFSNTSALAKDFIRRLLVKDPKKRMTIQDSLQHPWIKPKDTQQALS

Key:
MLCK [1] = target: T1, MLCK (Homo sapiens, UniProt Q15746); assay: MLCK inhibitory activity screen (32P-ATP peptide substrate phosphorylation); type: biochemical
Description: (§1) MLCK inhibitory activity screens were done by incubation with 20 μM peptide substrate ([…]), 200 μM ATP and [^32P]-ATP (2.5 μCi per reaction) in assay buffer (50 mM HEPES, pH 7.5 with KOH, 5 mM MgCl2, 0.15 M KCl, 0.015 M NaCl, 1 mM DTT) with 0.1 mM CaCl2 and 1 μM calmodulin (New England Biolabs, MA). [T. J. Lukas, S. Mirzoeva, U. Slomczynska and D. M. Watterson, J. Med. Chem. 42 (1999) 910-9.] Reactions were initiated by addition of MLCK protein and incubated for 20 min at 25° C. Reactions were spotted onto P-81 paper (Whatman, Clifton, N.J.), washed with 75 mM H3PO4 and 95% EtOH, and quantified by scintillation counting in EcoScintO (National Diagnostics, Atlanta, Ga.). Testing of compounds for kinase inhibitory activity against the structurally and functionally related kinases death-associated protein kinase (DAPK) and the signal transduction pathway relevant kinases protein kinase A (PKA) and protein kinase C (PKC) was performed as described by using the corresponding peptide substrates and assay conditions. [[…]. Guo, […]. Bourguignon, […]. Van Eldik and D. M. Watterson, J. Med. Chem 45 (2002) 563-6; A. M. Schumacher, […] and D. M. Watterson, Biochemistry 43 (2004) 8116-24; […]. Schumacher and D. M. Watterson, Pharmacol Ther 93 (2002) 217-24; […]. Schumacher, C. Weiss, M. Egli and D. M. Watterson, J. Biol. Chem. 276 (2001) 38956-65; D. M. Watterson, S. Mirzoeva, L. Guo, […]. […]

[2] = target: death-associated protein kinase (DAPK) (Homo sapiens, UniProt P53355); assay: Kinase inhibitory activity against death-associated protein kinase; type: biochemical; settings: read-out: DAPK (μM), in vitro inhibition of kinases
Description: as §1

protein kinase C (PKC) = assay: Kinase inhibitory activity against protein kinase C; settings: read-out: PKC (μM), in vitro inhibition of kinases
Description: MLCK inhibitory activity screens were done by incubation with 20 μM peptide substrate (KKRPQRATSNVFAM-NH2), 200 μM ATP and [^32P]-ATP (2.5 μCi per reaction) in assay buffer (50 mM HEPES, pH 7.5 with KOH, 5 mM MgCl2, 0.15 M KCl, 0.015 M NaCl, 1 mM DTT) with 0.1 mM CaCl2 and 1 μM calmodulin (New England Biolabs, MA). [T. J. Lukas, S. Mirzoeva, U. Slomczynska and D. M. Watterson, J. Med. Chem. 42 (1999) 910-9.] Reactions were initiated by addition of MLCK protein and incubated for 20 min at 25° C. Reactions were spotted onto P-81 paper (Whatman, Clifton, N.J.), washed with 75 mM H3PO4 and 95% EtOH, and quantified by scintillation counting in EcoScintO (National Diagnostics, Atlanta, Ga.). Testing of compounds for kinase inhibitory activity against the structurally and functionally related kinases death-associated protein kinase (DAPK) and the signal transduction pathway relevant kinases protein kinase A (PKA) and protein kinase C (PKC) was performed as described by using the corresponding peptide substrates and assay conditions. […]

protein kinase A (PKA) = protein kinase A (PKA) (Homo sapiens, UniProt P17612); assay: Kinase inhibitory activity against protein kinase A; type: biochemical; settings: read-out: PKA (μM), in vitro inhibition of kinases
Description: as §1

MLCK [3] = target: T1, MLCK; settings: read-out: MLCK (μM), in vitro inhibition of kinases; marked ** Previously reported; cited from earlier work

Row | MLCK inhibitory activity relative to parent compound (in words) (MLCK [1]; in vitro, versus compound 6) | IC50 (MLCK [1]; read-out: MLCK (μM), in vitro inhibition of kinases, 20 μM peptide substrate, 200 μM ATP, 20 min at 25° C.) [µM] | IC50 (protein kinase C (PKC)) [µM] | IC50 (protein kinase A (PKA)) [µM] | Structure (SMILES) | IC50 [2] [µM] | IC50 (MLCK [3]) [µM]
1 | diminished the inhibitor activity | > 100 |  |  | CN1CCCC1CCNC(=O)CCCCCCCn1nc(-c2ccccc2)ccc1=N (stereo not shown) | > 100 | 
2 |  |  | > 100 | > 100 | N=c1ccc(Cl)nn1CCCCCCCCCCC(=O)Nc1ccc(-c2ccccc2)nn1 | > 100 | 5
